IC50 data for one molecule are collected here from patent US7368471B2, “Substituted indole acid derivatives as inhibitors of plasminogen activator inhibitor-1 (PAI-1)” (Wyeth, priority 2001, dated 2008).

By UniProt entry, the sequences of proteins in these tests, tags left out. Residues count along the entry.
UniProt P05121, 24-402: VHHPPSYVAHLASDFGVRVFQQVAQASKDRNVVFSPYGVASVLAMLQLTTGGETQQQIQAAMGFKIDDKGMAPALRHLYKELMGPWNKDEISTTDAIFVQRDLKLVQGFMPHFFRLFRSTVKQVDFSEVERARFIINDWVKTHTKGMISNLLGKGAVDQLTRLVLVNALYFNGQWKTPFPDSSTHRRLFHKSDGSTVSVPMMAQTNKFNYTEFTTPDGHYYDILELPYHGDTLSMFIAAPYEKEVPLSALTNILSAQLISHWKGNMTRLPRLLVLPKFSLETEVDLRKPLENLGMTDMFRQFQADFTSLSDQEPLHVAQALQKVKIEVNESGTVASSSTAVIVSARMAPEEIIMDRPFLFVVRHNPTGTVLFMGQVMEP

This assay concerns the target human PAI-1 (Homo sapiens, UniProt P05121). As to the kind of experiment: Antibody Assay for Determining IC50 of Inhibition of PAI-1 (active PAI-1 bound to tPA-coated plate, 33B8 antibody). Type of assay: binding. To be noted: footnote a: determined by the Antibody Assay. How it is done:
Assay for Determining IC50 of Inhibition of PAI-1
This assay is based upon the non-SDS dissociable interaction between tPA and active PAI-1. Assay plates are initially coated with human tPA (10 μg/ml). Test compounds are dissolved in DMSO at 10 mM, then diluted with physiologic buffer (pH 7.5) to a final concentration of 1-50 μM. Test compounds are incubated with human PAI-1 (50 ng/ml) for 15 minutes at room temperature. The tPA-coated plate is washed with a solution of 0.05% Tween 20 and 0.1% BSA, then the plate is blocked with a solution of 3% BSA. An aliquot of the test compound/PAI-1 solution is then added to the tPA-coated plate, incubated at room temperature for 1 hour, and washed. Active PAI-1 bound to the plate is assessed by adding an aliquot of a 1:1000 dilution of the 33B8 monoclonal antibody against human PAI-1, and incubating the plate at room temperature for 1 hour (Molecular Innovations, Royal Oak, Mich.). […] The plate is incubated 45 minutes at room temperature, and color development is determined at OD405nm. The quantitation of active PAI-1 bound to tPA at varying concentrations of the test compound is used to determine the IC50. Results are analyzed using a logarithmic best-fit equation. The assay sensitivity is 5 ng/ml of human PAI-1 as determined from a standard curve ranging from 0-100 ng/ml.

For `O=C(O)C(=O)c1cn(Cc2ccccc2)c2ccc(-c3ccc(OC(F)(F)F)cc3)cc12` [Example 12, {1-Benzyl-5-[4-(trifluoromethoxy)phenyl]-1H-indol-3-yl}(oxo)acetic acid], the IC50 (as a rule, the concentration that gives 50% inhibition) turned out to be 2.7 µM.
